Laboratory results as given in patent US7115267.

Columns and labels:
[1] = target: p15 ubiquitin fusion (peptide c43-55 expressed as ubiquitin fusion) (UniProt P0CG47)
[2] = target: p97-ubiquitin fusion protein (UniProt P0CG47)
[3] = target: p13 ubiquitin fusion (peptide 43-55 expressed as ubiquitin fusion) (UniProt P0CG47)

UCH-L3 ubiquinase enzyme
in vitro enzymatic cleavage of the ubiquitin fusion [1]: enzymatically digested by UCH-L3 as above, resulting in a non-ubiquinated final product
in vitro enzymatic cleavage of the ubiquitin fusion [2]: enzymatically digested by UCH-L3 as above, resulting in a non-ubiquinated final product
in vitro enzymatic cleavage of the ubiquitin fusion [3]: enzymatically digested by UCH-L3 as above, resulting in a non-ubiquinated final product
